{"source": "PubChem BioAssay AID651647", "about": "(Sanford-Burnham Center for Chemical Genomics, 2012)", "note": "This is a selection; strong and weak results do not stand in their true shares. Some results for these compounds are left out of this collection, so the calls shown say nothing about other tests. The source made the active and inactive calls.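 The calls were made as follows: active = GFP/RFP ratio change of at least 30% with cell ATP level not reduced by more than half and red fluorescence within 50% of control; inactive = the rest, inconclusive results apart.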"}
{"molecular_target": "Matrix metalloproteinase-14 (Homo sapiens) (UniProt P50281)", "assay": "MT1-MMP activation inhibitors, cellular reporter – HT1080 RFP-PRO-GFP cells, GFP/RFP fluorescence, primary screen (AID 651647)", "details": "overnight, at 20 µM, hits give high values, percent of plate control window, DMSO zero", "outline": "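Test system: HT1080 cells expressing an RFP-PRO-GFP fluorescent reporter construct / Compound dosing: single-point 20 µM compound, 1% DMSO / Schedule: cells overnight before dosing, compound overnight, 37 °C, 5% CO2 / Evaluation: GFP/RFP fluorescence ratio / Control set: DMSO and RFP-L50D-GFP cell wells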"}
{"smiles": "COc1ccc(C(=O)NCC2(N(C)C)CCCCC2)cc1", "GFP/RFP ratio change": "inactive: -1.69%"}
{"smiles": "CCN1CCCC(OC(=O)C2(O)c3ccccc3C=Cc3ccccc32)C1", "note": "(stereo unspecified)", "GFP/RFP ratio change": "inactive: -0.552%"}
{"smiles": "Cc1cc(C(=O)NCC2(N3CCCCC3)CCCCC2)ccc1[N+](=O)[O-]", "GFP/RFP ratio change": "inactive: 3.06%"}
{"smiles": "O=C(NCC1(N2CCCCC2)CCCCC1)c1cccc(Br)c1", "GFP/RFP ratio change": "inactive: -1.22%"}
{"smiles": "C=CCN1CCN(CCOC(=O)C(O)(c2ccccc2)c2ccccc2)CC1", "GFP/RFP ratio change": "inactive: 5.49%"}
{"smiles": "O=C(NCC1(N2CCCCC2)CCCCC1)c1cc(F)c(F)cc1Cl", "GFP/RFP ratio change": "inactive: 0.109%"}
{"smiles": "Cc1ccccc1C(=O)NCC1(N2CCCCC2)CCCCC1", "GFP/RFP ratio change": "inactive: 0.666%"}
{"smiles": "CN(C)c1ccc(C(=O)NCC2(N(C)C)CCCCC2)cc1", "GFP/RFP ratio change": "inactive: 0.0762%"}
{"smiles": "CN(C)C1CCCC1OC(=O)C(O)(c1ccccc1)c1ccccc1", "note": "(stereo unspecified)", "GFP/RFP ratio change": "inactive: -0.888%"}
{"smiles": "Cc1ccc(C(=O)NCC2(N3CCCCC3)CCCCC2)cc1", "GFP/RFP ratio change": "inactive: -1.66%"}
{"smiles": "CCN(CC)CC(C)C(C)OC(=O)C(O)(c1ccccc1)c1ccccc1", "note": "(stereo unspecified)", "GFP/RFP ratio change": "inactive: 0.641%"}
{"smiles": "COc1cc(SC)ccc1C(=O)NCC1(N(C)C)CCCCC1", "GFP/RFP ratio change": "inactive: -1.54%"}
{"smiles": "CC(C)N1C(=O)CC2(CCN(CCOC(=O)C(O)(c3ccccc3)c3ccccc3)CC2)C1=O", "GFP/RFP ratio change": "inactive: -3.16%"}
{"smiles": "CN1[C@@H]2CC[C@H]1CC(OC(=O)C(O)(c1ccccc1)c1ccccc1)C2", "note": "(stereo partly specified)", "GFP/RFP ratio change": "inactive: -13.8%"}
{"smiles": "O=C(NCC1(N2CCCCC2)CCCCC1)c1cc([N+](=O)[O-])ccc1Cl", "GFP/RFP ratio change": "inactive: -10.6%"}
{"smiles": "CC(C)Oc1ccc(C(=O)NCC2(N(C)C)CCCCC2)cc1", "GFP/RFP ratio change": "inactive: -2.74%"}
{"smiles": "O=C(OCCN1CCCC1)C(O)(c1ccccc1)c1ccccc1", "GFP/RFP ratio change": "inactive: -1.09%"}
{"smiles": "CN(C)c1cccc(C(=O)NCC2(N(C)C)CCCCC2)c1", "GFP/RFP ratio change": "inactive: 3.4%"}
{"smiles": "C=C(C)C#CC(O)(C(=O)OC1CCN(C)CC1)c1ccccc1", "note": "(stereo unspecified)", "GFP/RFP ratio change": "inactive: 0.321%"}
{"smiles": "COc1ccc(Br)c(C(=O)NCC2(N3CCCCC3)CCCCC2)c1", "GFP/RFP ratio change": "inactive: -3.49%"}
{"smiles": "O=C(OC1CN2CCC1CC2)C(CO)(c1ccccc1)c1ccccc1", "note": "(stereo unspecified)", "GFP/RFP ratio change": "inactive: -23%"}
{"smiles": "O=C(NCC1(N2CCCCC2)CCCCC1)c1cccc(Cl)c1", "GFP/RFP ratio change": "inactive: -0.532%"}
{"smiles": "COc1cccc(C(=O)NCC2(N3CCCCC3)CCCCC2)c1", "GFP/RFP ratio change": "inactive: 0.748%"}
{"smiles": "COc1ccc(Cl)cc1C(=O)NCC1(N(C)C)CCCCC1", "GFP/RFP ratio change": "inactive: -1.3%"}
{"smiles": "COc1cc(C(=O)NCC2(N(C)C)CCCCC2)c([N+](=O)[O-])cc1OC", "GFP/RFP ratio change": "inactive: -2.69%"}
{"smiles": "CN(C)C1(CNC(=O)c2ccc(Br)cc2)CCCCC1", "GFP/RFP ratio change": "inactive: 3.24%"}
